Data on 19 compounds can be found in US9040533B2, “Oxime-substituted-quinoxaline-type piperidine compounds as ORL-1 modulators” (priority 2012, dated 2015).

Bounds are passed on as bounds.

Test [1] concerns the target T1, human opioid receptor-like (ORL-1) (Homo sapiens, UniProt P41146). The test can be described thus: ORL-1 receptor [35S]GTPγS functional binding assay. The class given is biochemical. Particulars: for EC50: read-out: GTPγS ORL-1 EC50 [mean ± SEM].
Another test concerns the target human μ-opioid receptors (Homo sapiens, UniProt P35372). Description: In vitro mu-opioid receptor binding assay ([3H]-diprenorphine displacement). Particulars: read-out: Mu opioid receptor Ki [Average ± Std Deviation].
Test [2] deals with T2, kappa opioid receptor (Homo sapiens, UniProt P41145). Description: In vitro kappa-opioid receptor binding assay ([3H]-U69,593 displacement). Particulars: read-out: Kappa opioid receptor Ki [Average ± Std Deviation].
In another test the target is delta opioid receptor (Homo sapiens, UniProt P41143). The test can be described thus: In vitro delta-opioid receptor binding assay ([3H]-Naltrindole displacement). Particulars: read-out: Delta opioid receptor Ki [Average ± Std Deviation].
The next test addresses human μ-receptors (Homo sapiens, UniProt P35372). Description: Mu-opioid receptor [35S]GTPγS functional assay. Particulars: for EC50: read-out: GTPγS Mu EC50 [mean ± SEM]. For orientation: Binding of GTPγS marks nucleotide exchange on a G protein.
For the next test, the target named is human δ-opioid receptors (Homo sapiens, UniProt P41143). The test can be described thus: Delta-opioid receptor [35S]GTPγS functional assay. Particulars: for EC50: read-out: GTPγS Delta EC50 [mean ± SEM].
Test [3] concerns the target T1, human opioid receptor-like (ORL-1). Description: In vitro ORL-1 receptor binding assay ([3H]-nociceptin displacement). Particulars: read-out: ORL-1 Ki [Average ± Std Deviation].
Test [4] concerns the target T2, kappa opioid receptor. The test can be described thus: Kappa-opioid receptor [35S]GTPγS functional assay.

For the compound `C/C(=N\OCC(=O)O)c1nc2ccccc2n([C@H]2C[C@H]3CCC[C@@H](C2)N3CC[C@@H]2CC[C@H]3C[C@@H]2C3(C)C)c1=O`, the “GTPγS ORL-1 Emax [mean ± SEM]” value in test [1] is on record as 44.0 ± 2.3%. Further, the EC50 in test [1] was 70.9 nM; on human μ-receptors, 514 nM; at human δ-opioid receptors, 0.165 µM. The Ki worked out at 425 nM at human μ-opioid receptors, 202 nM on kappa opioid receptor [2], 0.26 µM on delta opioid receptor and 12.2 nM in test [3]. Moreover, at human μ-receptors, the “GTPγS Mu Emax [mean ± SEM]” value turned out to be 82 ± 10%. The “GTPγS Delta Emax [mean ± SEM]” value on human δ-opioid receptors was found to be 108 ± 5%.
With `NC(=NO)c1nc2ccccc2n([C@H]2C[C@H]3CCC[C@@H](C2)N3C2CC3CCCC(C3)C2)c1=O` (some centres unmarked), the “GTPγS ORL-1 Emax [mean ± SEM]” value in test [1] is 28.67 ± 0.88%. For the same compound, the EC50 amounted to 2.29 nM in test [1] and 6.93 µM at human δ-opioid receptors. For the same compound, the Ki on human μ-opioid receptors is 122 nM; at kappa opioid receptor [2], 24 nM; at delta opioid receptor it was 12.7 µM; in test [3] it was 3.49 nM. Besides, the “GTPγS Delta Emax [mean ± SEM]” value on human δ-opioid receptors is listed as 37.33 ± 3.48%.
`CCO/N=C(\CCC(=O)O)c1nc2ccccc2n([C@H]2C[C@H]3CCC[C@@H](C2)N3C2CC3CC(CC)CC(C3)C2)c1=O` (some centres unmarked) [Compound 26]: in test [1], the “GTPγS ORL-1 Emax [mean ± SEM]” value came to 31.3 ± 1.9%. Also, the EC50 in test [1] came to 20 nM. Besides, the Ki stood at 26 nM on human μ-opioid receptors, 162 nM on kappa opioid receptor [2], 1.22 µM at delta opioid receptor and 8.83 nM in test [3]. Also, the “GTPγS Mu Emax [mean ± SEM]” value on human μ-receptors is on record as −0.33 ± 0.67%.
Consider `CCC1CC2CC(C1)CC(N1[C@@H]3CCC[C@H]1C[C@@H](n1c(=O)c(/C(CCC(=O)O)=N/OCCN(C)C)nc4ccccc41)C3)C2` (some centres unmarked) [Compound 34], for which the “GTPγS ORL-1 Emax [mean ± SEM]” value in test [1] amounted to 49.3 ± 1.3%. Moreover, the EC50 in test [1] worked out at 14.6 nM. The Ki at human μ-opioid receptors was found to be 73.2 nM; at kappa opioid receptor [2], 16 nM; on delta opioid receptor, 6.74 µM; in test [3], 6.83 nM. The “GTPγS Mu Emax [mean ± SEM]” value on human μ-receptors was −1%.
In the case of `CCON=C(C(=O)O)c1nc2ccccc2n([C@H]2C[C@H]3CC[C@@H](C2)N3C2CC3CCCCC(C3)C2)c1=O` (some centres unmarked) [Compound 36], in test [1], the “GTPγS ORL-1 Emax [mean ± SEM]” value stood at 60.33 ± 2.85%. Further, the EC50 in test [1] came out at 23.1 nM. Further, the Ki at human μ-opioid receptors stood at 703 nM; at kappa opioid receptor [2], 150 nM; on delta opioid receptor, 15.8 µM; in test [3] it was 2.2 nM.
Take `CC(C)ON=C(C(=O)O)c1nc2ccccc2n([C@H]2C[C@H]3CC[C@@H](C2)N3C2CC3CCCCC(C3)C2)c1=O` (stereo partly drawn) [Compound 37, [4-((1S,3R,5R)-(1R,6S,8S)-8-bicyclo[4.3.1]dec-8-yl-8-aza-bicyclo[3.2.1]oct-3-yl)-3-oxo-3,4-dihydro-quinoxalin-2-yl]-isopropoxyimino-acetic acid]: the “GTPγS ORL-1 Emax [mean ± SEM]” value in test [1] amounted to 70.3 ± 6.2%. In test [1], the EC50 came to 19.9 nM. For the same compound, the Ki on human μ-opioid receptors was 1410 nM; on kappa opioid receptor [2], 208 nM; at delta opioid receptor, above 20 µM; in test [3], 2.42 nM.
`NC(=O)CO/N=C(\C(=O)O)c1nc2ccccc2n([C@H]2C[C@H]3CCC[C@@H](C2)N3C2CC3CCCC(C3)C2)c1=O` (stereo partly drawn) [Compound 38, (Z)-2-(2-amino-2-oxoethoxyimino)-2-(4-((1R,3R)-9-(bicyclo[3.3.1]nonan-3-yl)-9-azabicyclo[3.3.1]nonan-3-yl)-3-oxo-3,4-dihydroquinoxalin-2-yl)acetic acid]: the “GTPγS ORL-1 Emax [mean ± SEM]” value in test [1] came out at 49.3 ± 8.7%. Besides, the EC50 in test [1] amounted to 4.5 nM. Besides, the Ki on human μ-opioid receptors is 514 nM; on kappa opioid receptor [2] it was 98 nM; on delta opioid receptor, above 20 µM; in test [3], 0.77 nM. In addition, the “GTPγS Mu Emax [mean ± SEM]” value at human μ-receptors was −1%.
Regarding `NC(=O)CO/N=C(\CCC(=O)O)c1nc2ccccc2n([C@H]2C[C@H]3CCC[C@@H](C2)N3C2CC3CCCC(C3)C2)c1=O` (some centres unmarked) [Compound 39], the “GTPγS ORL-1 Emax [mean ± SEM]” value in test [1] worked out at 25.75 ± 2.29%. Further, the EC50 in test [1] stood at 25.3 nM. Besides, the Ki was 1750 nM at human μ-opioid receptors, 663 nM on kappa opioid receptor [2], above 20 µM on delta opioid receptor and 26.8 nM in test [3].
`NC(=O)CO/N=C(\CCC(=O)O)c1nc2ccccc2n([C@H]2C[C@H]3CCC[C@@H](C2)N3C2CC3CCCCC(C3)C2)c1=O` (stereo partly drawn) [Compound 41, (E)-4-(2-amino-2-oxoethoxyimino)-4-(4-((1R,3R)-9-(bicyclo[4.3.1]decan-8-yl)-9-azabicyclo[3.3.1]nonan-3-yl)-3-oxo-3,4-dihydroquinoxalin-2-yl)butanoic acid]: in test [1], the “GTPγS ORL-1 Emax [mean ± SEM]” value was 43.0 ± 5.5%. The EC50 in test [1] was determined as 8.3 nM; at human μ-receptors, 159 nM. For the same compound, the Ki on human μ-opioid receptors worked out at 341 nM; at kappa opioid receptor [2], 200 nM; at delta opioid receptor, 19.3 µM; in test [3] it was 2.5 nM. For the same compound, the “GTPγS Mu Emax [mean ± SEM]” value at human μ-receptors is reported as 22.3 ± 0.7%.
With `CNC(=O)/C(=N\OCC(=O)O)c1nc2ccccc2n([C@H]2C[C@H]3CCC[C@@H](C2)N3C2CC3CCCC(C3)C2)c1=O` (some centres unmarked) [Compound 43], in test [1], the “GTPγS ORL-1 Emax [mean ± SEM]” value was found to be 26 ± 1%. Besides, in test [1], the EC50 was found to be 21.4 nM. Further, the Ki turned out to be 1470 nM at human μ-opioid receptors, 290 nM at kappa opioid receptor [2], 18 µM at delta opioid receptor and 7.34 nM in test [3].
As for `COCCO/N=C(\C(=O)O)c1nc2ccccc2n([C@H]2C[C@H]3CCC[C@@H](C2)N3C2CC3CCCCC(C3)C2)c1=O` (some centres unmarked) [Compound 46], the “GTPγS ORL-1 Emax [mean ± SEM]” value in test [1] turned out to be 76.67 ± 3.38%. Also, in test [1], the EC50 came out at 4.17 nM. Further, the Ki at human μ-opioid receptors is 472 nM; at kappa opioid receptor [2] it was 116 nM; on delta opioid receptor, 17.6 µM; in test [3] it was 0.36 nM.
Regarding `COCCO/N=C(\C(=O)O)c1nc2ccccc2n([C@H]2C[C@H]3CCC[C@@H](C2)N3C2CC3CCCC(C3)C2)c1=O` (some centres unmarked) [Compound 49], in test [1], the “GTPγS ORL-1 Emax [mean ± SEM]” value amounted to 69 ± 3.21%. Further, the EC50 in test [1] turned out to be 97 nM. Besides, the Ki at human μ-opioid receptors is 1710 nM; on kappa opioid receptor [2], 891 nM; on delta opioid receptor, above 20 µM; in test [3], 1.29 nM.
Turning to `CON=C(C(=O)O)c1nc2ccccc2n([C@H]2C[C@H]3COC[C@@H](C2)N3C2CC3CCCCC(C3)C2)c1=O` (stereo partly drawn) [Compound 50, [4-((1R,5S,7S)-(1S,6R,8R)-9-bicyclo[4.3.1]dec-8-yl-3-oxa-9-aza-bicyclo[3.3.1]non-7-yl)-3-oxo-3,4-dihydro-quinoxalin-2-yl]-methoxyimino-acetic acid], in test [1], the “GTPγS ORL-1 Emax [mean ± SEM]” value came to 75.0 ± 9.5%. In test [1], the EC50 was determined as 16.9 nM. Moreover, the Ki at human μ-opioid receptors was 18000 nM; on kappa opioid receptor [2], above 20000 nM; on delta opioid receptor it was above 20 µM; in test [3], 1.67 nM.
In the case of `CC(O/N=C(\C(=O)O)c1nc2ccccc2n([C@H]2C[C@H]3CCC[C@@H](C2)N3C2CC3CCCC(C3)C2)c1=O)C(N)=O` (some centres unmarked) [Compound 52], the “GTPγS ORL-1 Emax [mean ± SEM]” value in test [1] turned out to be 30.67 ± 3.71%. Also, the EC50 in test [1] came to 24.8 nM. Moreover, the Ki on human μ-opioid receptors is 4290 nM; on kappa opioid receptor [2], 216 nM; on delta opioid receptor, above 20 µM; in test [3], 1.32 nM.
As for `CC(C)C(O/N=C(\C(=O)O)c1nc2ccccc2n([C@H]2C[C@H]3CCC[C@@H](C2)N3C2CC3CCCC(C3)C2)c1=O)C(N)=O` (some centres unmarked) [Compound 53], in test [1], the “GTPγS ORL-1 Emax [mean ± SEM]” value came to 36 ± 7%. Moreover, the EC50 in test [1] came out at 61.1 nM. Besides, the Ki on human μ-opioid receptors worked out at 1400 nM; on kappa opioid receptor [2] it was 225 nM; at delta opioid receptor, 18.9 µM; in test [3], 1.97 nM.
For the compound `NC(=O)CO/N=C(\C(=O)O)c1nc2ccccc2n([C@H]2C[C@H]3CC[C@@H](C2)N3C2CC3CCCCC(C3)C2)c1=O` (some centres unmarked) [Compound 60], in test [1], the “GTPγS ORL-1 Emax [mean ± SEM]” value was 35 ± 4.16%. Besides, the EC50 in test [1] is 19.2 nM. The Ki on human μ-opioid receptors was 254 nM; on kappa opioid receptor [2] it was 74.9 nM; at delta opioid receptor it was above 20 µM; in test [3], 0.41 nM. On kappa opioid receptor [4], the “GTPγS Kappa Emax [mean ± SEM]” value is 1%.
For the compound `CC(C)(O/N=C(\C(=O)O)c1nc2ccccc2n([C@H]2C[C@H]3CC[C@@H](C2)N3C2CC3CCCCC(C3)C2)c1=O)C(N)=O` (some centres unmarked) [Compound 61], the “GTPγS ORL-1 Emax [mean ± SEM]” value in test [1] was 29.75 ± 3.01%. Besides, the EC50 in test [1] was 7.58 nM. The Ki stood at 861 nM at human μ-opioid receptors, 458 nM at kappa opioid receptor [2], 11.5 µM at delta opioid receptor and 0.91 nM in test [3]. For the same compound, the “GTPγS Kappa Emax [mean ± SEM]” value on kappa opioid receptor [4] is listed as 1%.
For `CN(C)C(=O)CON=C(C(=O)O)c1nc2ccccc2n([C@H]2C[C@H]3CCC[C@@H](C2)N3C2CC3CCCC(C3)C2)c1=O` (some centres unmarked) [Compound 63], the “GTPγS ORL-1 Emax [mean ± SEM]” value in test [1] turned out to be 42.67 ± 0.67%. The EC50 in test [1] is 0.52 nM. Besides, the Ki came to 86.6 nM on human μ-opioid receptors, 22.5 nM on kappa opioid receptor [2], 14.9 µM on delta opioid receptor and 0.51 nM in test [3]. For the same compound, the “GTPγS Mu Emax [mean ± SEM]” value on human μ-receptors is listed as −0.33 ± 0.67%.
As for `CNC(=O)CON=C(C(=O)O)c1nc2ccccc2n([C@H]2C[C@H]3CCC[C@@H](C2)N3C2CC3CCCC(C3)C2)c1=O` (some centres unmarked) [Compound 64], the “GTPγS ORL-1 Emax [mean ± SEM]” value in test [1] was 43.33 ± 0.88%. The EC50 in test [1] was determined as 1.21 nM. Moreover, the Ki on human μ-opioid receptors is 268 nM; on kappa opioid receptor [2] it was 35.3 nM; on delta opioid receptor, 13.9 µM; in test [3] it was 0.5 nM.
